Laboratory results taken from patent publication US10869937B2, “Polymer derivatives, and novel polymer derivative imaging probe using same” (Nippon Kayaku Kabushiki Kaisha, priority 2016, dated 2020).

How the values were obtained:
[1] = tested on: human glioma U87MG tumor; conditions: U87MG subcutaneous tumor, 5 mg/kg in terms of Nile Red derivative, single i.v., one hour after administration
[2] = tested on: kidney; conditions: U87MG tumor-bearing mice, 5 mg/kg in terms of Nile Red derivative, single i.v., one hour after administration
[3] = tested on: kidney; conditions: RCC-01-JCK tumor-bearing mice, 5 mg/kg in terms of Nile Red derivative, single i.v., one hour after administration
[4] = tested on: kidney; conditions: BxPC-3 tumor-bearing mice, 5 mg/kg in terms of Nile Red derivative, single i.v., one hour after administration
[5] = Average particle size measurement with single nanoparticle size analyzer IG-1000 (induced diffraction grating method); type: physicochemical; conditions: 25° C.
Procedure: The particle size (average particle size) of the nanoparticles according to the invention is measured by, for example, an induced diffraction grating method. An induced diffraction grating method is a method of: (1) irradiating a 1 or 2 mg/mL aqueous solution of the block copolymer of the present invention or a composition including the block copolymer with laser light, thereby forming diffraction gratings by dielectrophoresis; (2) stopping an external force that causes dielectrophoresis, measuring the annihilation rate of the diffraction gratings caused by diffusion, and (3) applying the annihilation rate to the Stokes-Einstein relational equation to obtain the particle size. For example, the particle size may be measured with a single nanoparticle size measuring apparatus, IG-1000, manufactured by Shimadzu Corp.
Measurement of the average particle sizes of the block copolymers of Synthesis Examples and Examples and compositions including those block copolymers was carried out using a single nanoparticle size analyzer, IG-1000, manufactured by Shimadzu Corp. (measurement temperature: 25° C., light intensity at t=0: 100 to 200). Regarding the sample for measuring the average particle size, a solution produced using ultrapure water to a block copolymer concentration of 1 mg/mL or 2 mg/mL and filtered through a 0.45 μm membrane filter, was used.

[6] = tested on: human pancreatic cancer BxPC-3 tumor; conditions: BxPC-3 subcutaneous tumor, 5 mg/kg in terms of Nile Red derivative, single i.v., one hour after administration
[7] = tested on: human renal cancer RCC-01-JCK tumor; conditions: RCC-01-JCK subcutaneous tumor, 5 mg/kg in terms of Nile Red derivative, single i.v., one hour after administration
[8] = tested on: kidney; conditions: BxPC3 tumor-bearing mice, 5 mg/kg in terms of Nile Red derivative, single i.v., one hour after administration
[9] = tested on: human pancreatic cancer BxPC3 tumor; conditions: for fluorescence distribution in tumor: BxPC3 subcutaneous tumor, 5 mg/kg in terms of Nile Red derivative, single i.v., one hour after administration; for accumulation properties in tumor: conclusion from tumor fluorescence, Test Example 4

Row | Substance | fluorescence distribution in tumor [1] | fluorescence distribution in kidney [2] | fluorescence distribution in kidney [3] | fluorescence distribution in kidney [4] | average particle size ([5]; 2 mg/mL in ultrapure water) | fluorescence distribution in tumor [6] | fluorescence distribution in tumor [7] | fluorescence distribution in kidney [8] | fluorescence distribution in tumor [9] | accumulation properties in tumor [9] | average particle size ([5]; 1 mg/mL in ultrapure water)
1 | 4-Phenyl-1-Butanol-Bonded and Nile Red Derivative-Bonded Product of Polyethylene Glycol (2 kDa)-Polyglutamic Acid (7.9 Polymerization Units) Block Copolymer [Example 1] | penetrated into the entire tumor, and fluorescence signals were observed in a wider area, compared to Comparative Example 1 | fluorescence was observed in the blood vessels and renal tubules | fluorescence was observed in the blood vessels and renal tubules | fluorescence was observed in the blood vessels and renal tubules | 18 nm | penetrated into the entire tumor, and fluorescence signals were observed in a wider area, compared to Comparative Example 1 | penetrated into the entire tumor, and fluorescence signals were observed in a wider area, compared to Comparative Example 1 | – | – | – | –
2 | 4-phenyl-1-Butanol-Bonded and Nile Red Derivative-Bonded Product of Polyethylene Glycol (12 kDa)-Polyglutamic Acid (22.0 Polymerization Units) Block Copolymer [Comparative Example 1, reference compound] | – | fluorescence was not recognized in areas other than in the blood vessels | fluorescence was not recognized in areas other than in the blood vessels | fluorescence was not recognized in areas other than in the blood vessels | 36 nm | – | – | – | – | – | –
3 | Cabazitaxel (CBZ)-Bonded and Nile Red Derivative-Bonded Product of Polyethylene Glycol (12 kDa)-α,β-Polyaspartic Acid (23.8 Polymerization Units) Block Copolymer [Comparative Example 2] | – | – | – | – | – | – | – | fluorescence was not recognized in areas other than in the blood vessels | fluorescence signals were observed in the outer periphery of tumors; however, tumor tissue penetrability was not confirmed | exhibited lower accumulation properties in tumor compared to Example 2 | 29 nm
4 | Cabazitaxel (CBZ)-Bonded, n-Butylamine-Bonded, and Nile Red Derivative-Bonded Product of Polyethylene Glycol (2 kDa)-α,β-Polyaspartic Acid (12.5 Polymerization Units) Block Copolymer [Example 2] | – | – | – | – | – | – | – | fluorescence was observed in the renal tubules | signals of fluorescence were observed in a wide area of tumor sections | exhibited rapid tumor accumulation properties | 14 nm
5 | Nile Red Derivative-Bonded Product of Polyethylene Glycol (2 kDa)-α,β-Polyaspartic Acid (12.5 Polymerization Units) Block Copolymer [Comparative Example 3] | – | – | – | – | – | – | – | fluorescence was observed in the renal tubules | fluorescence signals were observed in the outer periphery of tumors; however, tumor tissue penetrability was not confirmed | exhibited low accumulation properties in tumor | –

Where two headings read alike, the source gives them in different places.
